Measurements published in ChEMBL document CHEMBL1137783 (J Med Chem, 2009).

Protein sequences, listed by entry. Tags and fused reporters are not part of them. Lines headed by an entry give the natural chain unless they say otherwise; changes in a name come on top.
UniProt Q12809: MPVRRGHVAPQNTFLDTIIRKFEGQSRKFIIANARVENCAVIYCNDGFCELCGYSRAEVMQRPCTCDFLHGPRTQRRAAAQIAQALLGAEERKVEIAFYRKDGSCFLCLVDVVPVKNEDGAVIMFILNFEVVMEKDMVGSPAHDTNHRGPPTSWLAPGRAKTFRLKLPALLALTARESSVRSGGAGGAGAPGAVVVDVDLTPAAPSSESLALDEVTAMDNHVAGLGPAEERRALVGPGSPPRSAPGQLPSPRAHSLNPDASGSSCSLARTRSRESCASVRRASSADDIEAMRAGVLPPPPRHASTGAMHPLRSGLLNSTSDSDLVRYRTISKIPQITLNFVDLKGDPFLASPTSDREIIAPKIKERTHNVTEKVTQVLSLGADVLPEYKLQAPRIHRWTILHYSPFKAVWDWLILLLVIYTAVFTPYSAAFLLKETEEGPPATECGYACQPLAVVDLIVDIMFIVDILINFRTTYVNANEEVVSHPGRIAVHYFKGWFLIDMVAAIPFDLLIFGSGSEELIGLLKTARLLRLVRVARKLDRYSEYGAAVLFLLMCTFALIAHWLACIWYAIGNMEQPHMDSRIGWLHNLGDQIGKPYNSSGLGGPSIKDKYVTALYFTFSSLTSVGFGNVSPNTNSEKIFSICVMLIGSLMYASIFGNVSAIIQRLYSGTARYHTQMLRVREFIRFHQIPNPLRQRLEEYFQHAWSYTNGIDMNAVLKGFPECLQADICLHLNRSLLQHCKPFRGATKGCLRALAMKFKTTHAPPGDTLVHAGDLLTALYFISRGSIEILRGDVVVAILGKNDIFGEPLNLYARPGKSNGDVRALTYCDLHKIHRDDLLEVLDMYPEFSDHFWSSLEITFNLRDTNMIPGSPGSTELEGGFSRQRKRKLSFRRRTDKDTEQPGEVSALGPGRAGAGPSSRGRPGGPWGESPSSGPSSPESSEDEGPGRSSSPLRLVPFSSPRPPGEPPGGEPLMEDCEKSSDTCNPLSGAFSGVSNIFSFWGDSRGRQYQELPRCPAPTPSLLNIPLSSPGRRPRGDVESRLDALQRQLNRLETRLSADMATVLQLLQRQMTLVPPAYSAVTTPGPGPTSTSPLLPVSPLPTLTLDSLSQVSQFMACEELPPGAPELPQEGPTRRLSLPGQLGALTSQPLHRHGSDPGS

Assays:
hERG (KCNH2) = hERG (KCNH2) (Homo sapiens, UniProt Q12809); assay: (§1) Inhibition of human ERG channel; conditions: human
[1] = target: Voltage-gated inwardly rectifying potassium channel KCNH2 (Homo sapiens, UniProt Q12809); assay: as §1

Row | Compound | Ki (hERG (KCNH2)) | IC50 [1] | also measured
1 | c1ccc(-c2[nH]c3ccccc3c2C2CCCNC2)cc1 (stereo not given) | 4.9 µM | – | –
2 | CN1CCCCC1c1c(-c2ccccc2)[nH]c2ccccc12 (stereo not given) | 7 µM | – | –
3 | N#Cc1ccc(Cn2cncc2CN[C@H]2CCN(C(=O)c3cccc(Cl)c3)C2=O)cc1 | – | 5.8 µM | –
4 | F[C@@H]1CCNC[C@H]1c1c(-c2ccccc2)[nH]c2ccccc12 | – | – | Ki [1]: 1.1 µM
5 | COC(=O)c1[nH]c2cc(F)ccc2c1[C@@H]1CNCC[C@H]1F | 8.2 µM | – | –
6 | Fc1ccc2c([C@@H]3CNCC[C@H]3F)c(C3CCCCC3)[nH]c2c1 | 5.4 µM | – | –
7 | Fc1ccc2c([C@@H]3CNCC[C@H]3F)c(-c3cccnc3)[nH]c2c1 | 2.5 µM | – | –
8 | CC(C)(C)OC(=O)NCCCN(Cc1cncn1Cc1ccc(C#N)cc1)[C@H]1CCN(Cc2ccccc2)C1=O | – | 0.11 µM | –
9 | CNCCCN1c2ccccc2CCc2ccccc21 [DESIPRAMINE] | – | – | pIC50 ([1]; human): 5.857
10 | O=C1Cc2cc(CCN3CCN(c4nsc5ccccc45)CC3)c(Cl)cc2N1 [ZIPRASIDONE] | – | 0.125 µM | –
